The values below are quoted from earlier work in patent publication US20120277265A1, “NOVEL POLYQUINOLINE DERIVATIVES AND THE THERAPEUTIC USE THEREOF” (CENTRE NATIONAL DE LA RECHERCHE SCIENTIFIQUE (C.N.R.S.), priority 2005, published 2012).

SMILES strings stand for the structures.

The conditions of this data set: 25° C., ionic strength 0.1-0.2, metal ion to chelator 1/1; cited from earlier work.

With `NCCN` [EDA, ethylenediamine], the “log K1 (stability constant for the MLc species), Cu(II)” value was 10.5.
